The text below walks through data of EP1202975B1, “SUBSTITUTED POLYCYCLIC ARYL AND HETEROARYL PYRAZINONES USEFUL FOR SELECTIVE INHIBITION OF THE COAGULATION CASCADE” (Pharmacia Corporation, priority 1999, dated 2000).

By UniProt entry, the sequences of proteins in these tests, tags left out. Residues count along the entry.
UniProt P00761, 9-231: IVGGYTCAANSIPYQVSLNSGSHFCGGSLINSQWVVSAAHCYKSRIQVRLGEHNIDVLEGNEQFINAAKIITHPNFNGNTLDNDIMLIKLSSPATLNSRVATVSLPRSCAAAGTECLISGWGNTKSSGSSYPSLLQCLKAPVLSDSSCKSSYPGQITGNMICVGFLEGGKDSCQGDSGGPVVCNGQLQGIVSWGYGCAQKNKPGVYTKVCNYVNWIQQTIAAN

By IC50 is commonly meant the concentration at which inhibition is half-maximal. Higher therefore signals weaker potency in that assay.

Molecules are shown by their SMILES.

The assay deals with Trypsin (type IX from porcine pancreas) (Sus scrofa, UniProt P00761). Put plainly: biochemical.
`N=C(N)c1ccc(CNC(=O)Cn2c(-c3ccccc3)cnc(NC(=O)Nc3ccccc3)c2=O)cc1` [Example 106] yielded a concentration for half-maximal inhibition (IC50) of 250 nM.

`N=C(N)c1ccc(CNC(=O)Cn2c(-c3ccccc3)cnc(NC(=O)Nc3cccc(N)c3)c2=O)cc1` [Example 107] yielded a half-maximal inhibitory concentration (IC50) of 240 nM.

`N=C(N)c1ccc(CNC(=O)Cn2c(-c3ccccc3)cnc(NC(=O)Nc3cc(Cl)cc(Cl)c3)c2=O)cc1` [Example 108] came in with an IC50 of 500 nM.

The compound `CC(C)NC(=O)Nc1ncc(-c2ccccc2)n(CC(=O)NCc2ccc(C(=N)N)cc2)c1=O` [Example 109] registered an IC50 of 220 nM. Against the preceding compound, the IC50 is about 2.3-fold lower.
